How the values were obtained:
human MCR-3 receptor = human MCR-3 receptor (human, UniProt P41968 1-323); assay: cell-based or functional assay
[1] = biological target: ACTH (MCR-2) receptor endogenous to murine Y1 adrenocortical cells (murine, UniProt Q64326 1-296); assay: cell-based or functional assay

By UniProt entry, the sequences of proteins in these tests, tags left out. Where a name states a change or a piece, a line headed by the entry shows the natural chain unless it says otherwise.
UniProt P41968: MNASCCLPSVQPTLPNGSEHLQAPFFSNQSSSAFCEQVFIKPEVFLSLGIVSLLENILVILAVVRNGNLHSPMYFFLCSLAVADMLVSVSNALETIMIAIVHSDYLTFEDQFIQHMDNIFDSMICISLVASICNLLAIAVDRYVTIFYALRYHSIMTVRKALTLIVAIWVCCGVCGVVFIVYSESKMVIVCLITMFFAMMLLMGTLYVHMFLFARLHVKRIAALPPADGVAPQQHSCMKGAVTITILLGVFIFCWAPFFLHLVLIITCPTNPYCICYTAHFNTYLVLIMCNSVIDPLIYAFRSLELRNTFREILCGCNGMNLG
UniProt Q64326: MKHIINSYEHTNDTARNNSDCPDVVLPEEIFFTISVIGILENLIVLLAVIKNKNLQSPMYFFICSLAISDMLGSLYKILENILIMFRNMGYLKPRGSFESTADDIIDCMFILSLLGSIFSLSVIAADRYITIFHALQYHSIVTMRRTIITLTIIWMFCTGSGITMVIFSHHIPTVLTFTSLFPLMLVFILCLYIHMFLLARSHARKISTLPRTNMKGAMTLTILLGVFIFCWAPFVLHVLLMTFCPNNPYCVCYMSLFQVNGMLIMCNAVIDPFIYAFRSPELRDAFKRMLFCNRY
UniProt P01189: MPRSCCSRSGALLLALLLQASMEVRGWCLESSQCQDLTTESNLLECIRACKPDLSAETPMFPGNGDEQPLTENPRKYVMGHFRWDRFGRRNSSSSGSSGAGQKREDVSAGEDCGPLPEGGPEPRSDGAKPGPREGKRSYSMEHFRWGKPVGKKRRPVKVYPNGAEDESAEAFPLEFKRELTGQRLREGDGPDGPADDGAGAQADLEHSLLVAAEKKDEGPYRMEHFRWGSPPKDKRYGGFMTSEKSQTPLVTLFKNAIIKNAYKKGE

Row | Binder | EC50 of α-MSH alone, cAMP in HEK cells expressing MCR-3 (human MCR-3 receptor) | EC50 of ACTH-(1-24) alone, cAMP in Y1 cells [1]
1 | SYSMEHFRWGKPV (ligand, UniProt P01189 138-150, looked up) [α-melanocyte stimulating hormone] | 4.2 nM | 
2 | SYSMEHFRWGKPVGKKRRPVKVYP (ligand, UniProt P01189 138-161, looked up) [ACTH-(1-24)] |  | 1.8 nM
